Test results published in US10023539B2, “Aryl-cyanoguanidine compounds” (Bayer Pharma Aktiengesellschaft, priority 2014, dated 2018).
Where “and” joins values, the source holds several entries; their conditions need not be identical. Equal entries are not always repeated.

By UniProt entry, the sequences of proteins in these tests, tags left out. Where a name states a change or a piece, a line headed by the entry shows the natural chain unless it says otherwise.
UniProt Q9NRG4: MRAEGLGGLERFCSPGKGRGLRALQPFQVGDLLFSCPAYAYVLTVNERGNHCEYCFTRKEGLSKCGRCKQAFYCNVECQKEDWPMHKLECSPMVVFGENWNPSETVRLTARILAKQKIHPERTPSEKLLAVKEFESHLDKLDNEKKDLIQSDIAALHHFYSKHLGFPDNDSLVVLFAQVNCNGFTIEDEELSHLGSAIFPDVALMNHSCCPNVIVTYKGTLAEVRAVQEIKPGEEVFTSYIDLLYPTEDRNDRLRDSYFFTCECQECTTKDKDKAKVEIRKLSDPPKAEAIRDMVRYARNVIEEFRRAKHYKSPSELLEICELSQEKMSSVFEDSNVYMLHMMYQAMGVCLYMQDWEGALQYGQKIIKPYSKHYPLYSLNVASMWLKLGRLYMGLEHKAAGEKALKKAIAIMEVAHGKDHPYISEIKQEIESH

Tests used:
SMYD2 [1] = molecular target: T1, SMYD2 (Homo sapiens (Human), UniProt Q9NRG4); assay: In Cell Western (ICW) cell-based assay for detection of SMYD2 methylation activity; details: SMYD2 overexpressing KYSE-150 cells, 72 h treatment, p53K370me1 signal; read-out: IC50 [mol/l] (ICW assay)
SMYD2 [2] = molecular target: T1, SMYD2; assay: Scintillation Proximity Assay (SPA) for detection of SMYD2 enzymatic inhibition; assay type: biochemical; details: read-out: IC50 [mol/l] (SPA Assay)
Description: 1.1 Scintillation Proximity Assay (SPA) for Detection of SMYD2 Enzymatic Inhibition
The SMYD2 full length enzyme was produced in-house by expression (with an N-terminal 6×His tag) in E. coli and purification by affinity chromatography on a Ni-NTA Sepharose column followed by a size exclusion chromatography step on a Superdex 200 16/60 column (GE Healthcare).
To this end, 100-fold concentrated compound solutions (in DMSO) were previously prepared by serial dilution (1:3.4) of 2 mM stocks in a clear low volume 384-well source microtiter plate (Greiner Bio-One), from which 50 nl of compound solutions were transferred into a white low volume test microtiter plate from the same supplier. […] The samples were then incubated for 15 min at 22° C. to allow pre-equilibration of the putative enzyme-inhibitor complexes before the start of the methylation reaction, which was initiated by the addition of 2.5 μl 2-fold concentrated solution (in assay buffer) of titrated S-Adenosyl-L-Methionine (3H-SAM, Perkin Elmer, final concentration: 60 nM) and p53 Peptide substrate (final concentration: 1.0 μM). The resulting mixture (5 μl final volume) was shortly centrifuged (2 min., 1500 rpm) and incubated at 22° C. during 30 min. Thereupon the reaction was stopped by adding 3 μl of Streptavidin PS SPA imaging beads (Perkin Elmer, final concentration of 3.12 μg/μl) and “cold” SAM (AK Scientific, 25 μM final concentration) for non-specific binding reduction. Plates containing the stopped reaction were sealed with transparent adhesive foil (Perkin Elmer), centrifuged (2 min., 1500 rpm), and further incubated for—at least—1 h at RT (or overnight at 4° C.) in order to allow the SPA signals to develop. […] IC50 values were calculated by fitting the normalized inhibition data to a 4-parameter logistic equation using the “Screener” analysis software from Genedata.

[3] = methylation of biotinylated p53 Peptide, 3H-SAM, full length SMYD2

IC50 (SMYD2 [1])	IC50 (SMYD2 [2]; [3])	IC50 (SMYD2 [2]; comparison example versus WO 2006/072350)	SMILES
1390 nM	1320 nM		CCN(C(=O)CO)C1CN(/C(=N\C#N)Nc2cccc(OC(F)F)c2)N=C1c1ccc(Cl)c(Cl)c1 (single isomer, unassigned) [Example 4.2, N-[1-{N′-cyano-N-[3-(difluoromethoxy)phenyl]carbamimidoyl}-3-(3,4-dichlorophenyl)-4,5-dihydro-1H-pyrazol-4-yl]-N-ethyl-2-hydroxyacetamide]
101 nM	15 nM		CCN(C(=O)CN)C1CN(/C(=N\C#N)Nc2cccc(OC(F)F)c2)N=C1c1ccc(Cl)c(Cl)c1 (racemic) [Example 3, Rac-N-[1-{N′-cyano-N-[3-(difluoromethoxy)phenyl]carbamimidoyl}-3-(3,4-dichlorophenyl)-4,5-dihydro-1H-pyrazol-4-yl]-N-ethylglycinamide]
99.6 nM	71 nM		CCN(C(=O)CO)C1CN(/C(=N\C#N)Nc2cccc(OC)c2)N=C1c1ccc(Cl)c(Cl)c1 (single isomer, unassigned) [Example 15.2, N-{1-[N′-cyano-N-(3-methoxyphenyl)carbamimidoyl}-3-(3,4-dichlorophenyl)-4,5-dihydro-1H-pyrazol-4-yl]-N-ethyl-2-hydroxyacetamide]
126 nM	9.09 nM		CCN(C(=O)CO)C1CN(/C(=N\C#N)Nc2cc(C(F)(F)F)ccc2OC2CCN(C)CC2)N=C1c1ccc(Cl)c(Cl)c1 (racemic) [Example 31, Rac-N-[1-(N′-cyano-N-{2-[(1-methylpiperidin-4-yl)oxy]-5-(trifluoromethyl)phenyl}-carbamimidoyl)-3-(3,4-dichlorophenyl)-4,5-dihydro-1H-pyrazol-4-yl]-N-ethyl-2-hydroxyacetamide]
27.7 nM	12.5 nM		CCN(C(=O)CO)C1CN(/C(=N\C#N)Nc2cc(OC(F)F)ccc2OC)N=C1c1ccc(Cl)c(Cl)c1 (racemic) [Example 18, Rac-N-[1-{N′-cyano-N-[5-(difluoromethoxy)-2-methoxyphenyl]carbamimidoyl}-3-(3,4-dichlorophenyl)-4,5-dihydro-1H-pyrazol-4-yl]-N-ethyl-2-hydroxyacetamide]
95.9 nM	355 nM		CCN(C(=O)CO)C1CN(/C(=N\C#N)Nc2cc(C(F)(F)F)ccc2CN2CCCC2)N=C1c1ccc(Cl)c(Cl)c1 (racemic) [Example 27, Rac-N-[1-{N′-cyano-N-[2-(pyrrolidin-1-ylmethyl)-5-(trifluoromethyl)phenyl]carbamimidoy}-3-(3,4-dichlorophenyl)-4,5-dihydro-1H-pyrazol-4-yl]-N-ethyl-2-hydroxyacetamide]
96.4 nM	37.6 nM		CCN(C(=O)CO)C1CN(/C(=N\C#N)Nc2cccc(OC(F)F)c2)N=C1c1ccc(Cl)c(C)c1 (single isomer, unassigned) [Example 33.2, N-[3-(4-chloro-3-methylphenyl)-1-{N′-cyano-N-[3-(difluoromethoxy)phenyl]carbamimidoyl}-4,5-dihydro-1H-pyrazol-4-yl]-N-ethyl-2-hydroxyacetamide]
196 nM	86.7 nM and 254 nM		CCN(C(=O)CO)C1CN(/C(=N\C#N)Nc2cccc(OC(F)(F)F)c2)N=C1c1ccc(Cl)c(Cl)c1 (racemic) [Example 13, Rac-N-[1-{N′-cyano-N-[3-(trifluoromethoxy)phenyl]carbamimidoyl}-3-(3,4-dichlorophenyl)-4,5-dihydro-1H-pyrazol-4-yl]-N-ethyl-2-hydroxyacetamide]
8000 nM	466 nM		CCN(C(=O)CCCN)C1CN(/C(=N\C#N)Nc2cccc(OC(F)F)c2)N=C1c1ccc(Cl)c(Cl)c1 (racemic) [Example 10, Rac-4-amino-N-[1-{N′-cyano-N-[3-(difluoromethoxy)phenyl]carbamimidoyl}-3-(3,4-dichlorophenyl)-4,5-dihydro-1H-pyrazol-4-yl]-N-ethylbutanamide]
166 nM	40.7 nM		CCN(C(=O)CNC)C1CN(/C(=N\C#N)Nc2cccc(OC(F)F)c2)N=C1c1ccc(Cl)c(C)c1 (racemic) [Example 36, rac-N-[3-(4-Chloro-3-methylphenyl)-1-{N′-cyano-N-[3-(difluoromethoxy)phenyl]carbamimidoyl}-4,5-dihydro-1H-pyrazol-4-yl]-N-ethyl-N^2-methylglycinamide]
4140 nM			CC(C)(O)C(=O)NC1CN(/C(=N\C#N)Nc2cccc(OC(F)F)c2)N=C1c1ccc(Cl)c(Cl)c1 (racemic) [Example 5, Rac-N-[1-{N′-cyano-N-[3-(difluoromethoxy)phenyl]carbamimidoyl}-3-(3,4-dichlorophenyl)-4,5-dihydro-1H-pyrazol-4-yl]-2-hydroxy-2-methylpropanamide]
214 nM	5.55 nM		CCN(C(=O)CO)C1CN(/C(=N\C#N)Nc2cc(OC(F)F)ccc2OCCCN(C)C)N=C1c1ccc(Cl)c(Cl)c1 (racemic) [Example 29, Rac-N-[1-(N′-cyano-N-{5-(difluoromethoxy)-2-[3-(dimethylamino)propoxy]phenyl}-carbamimidoyl)-3-(3,4-dichlorophenyl)-4,5-dihydro-1H-pyrazol-4-yl]-N-ethyl-2-hydroxyacetamide]
	4790 nM		CCN(C(=O)CO)C1CN(/C(=N\C#N)Nc2cccc(OCCN(C)C)c2)N=C1c1ccc(Cl)c(Cl)c1 (single isomer, unassigned) [Example 16.1, N-[1-(N′-cyano-N-{3-[2-(dimethylamino)ethoxy]phenyl}carbamimidoyl)-3-(3,4-dichlorophenyl)-4,5-dihydro-1H-pyrazol-4-yl]-N-ethyl-2-hydroxyacetamide]
	28.2 nM	28.2 nM	CCN(C(=O)CO)C1CN(/C(=N\C#N)Nc2cccc(OC(F)F)c2)N=C1c1ccc(Cl)c(Cl)c1 (single isomer, unassigned) [Example 4.1, N-[1-{N′-cyano-N-[3-(difluoromethoxy)phenyl]carbamimidoyl}-3-(3,4-dichlorophenyl)-4,5-dihydro-1H-pyrazol-4-yl]-N-ethyl-2-hydroxyacetamide]
	4610 nM		CCN(C(=O)CO)C1CN(/C(=N\C#N)Nc2cccc(OC(F)(F)F)c2)N=C1c1ccc(Cl)c(Cl)c1 (single isomer, unassigned) [Example 13.1, N-[1-{N′-cyano-N-[3-(trifluoromethoxy)phenyl]carbamimidoyl}-3-(3,4-dichlorophenyl)-4,5-dihydro-1H-pyrazol-4-yl]-N-ethyl-2-hydroxyacetamide]
	> 20000 nM		CC(C)(O)C(=O)NC1CN(/C(=N\C#N)Nc2cccc(OC(F)F)c2)N=C1c1ccc(Cl)c(Cl)c1 (single isomer, unassigned) [Example 5.1, N-[1-{N′-cyano-N-[3-(difluoromethoxy)phenyl]carbamimidoyl}-3-(3,4-dichlorophenyl)-4,5-dihydro-1H-pyrazol-4-yl]-2-hydroxy-2-methylpropanamide]
	73.2 nM		CCN(C(=O)CO)C1CN(/C(=N\C#N)Nc2cc(C(F)(F)F)ccc2CN2CCCC2)N=C1c1ccc(Cl)c(Cl)c1 (single isomer, unassigned) [Example 27.1, N-[1-{N′-cyano-N-[2-(pyrrolidin-1-ylmethyl)-5-(trifluoromethyl)phenyl]carbamimidoyl}-3-(3,4-dichlorophenyl)-4,5-dihydro-1H-pyrazol-4-yl]-N-ethyl-2-hydroxyacetamide]
